pIC50: −log10 of the molar value. Where only a bound is given, the exact number is not on record here.

Sequences of proteins named here, by UniProt entry; tags and fusion partners are left off. Residues count along the entry.
UniProt P08246, 30-267 limits assumed: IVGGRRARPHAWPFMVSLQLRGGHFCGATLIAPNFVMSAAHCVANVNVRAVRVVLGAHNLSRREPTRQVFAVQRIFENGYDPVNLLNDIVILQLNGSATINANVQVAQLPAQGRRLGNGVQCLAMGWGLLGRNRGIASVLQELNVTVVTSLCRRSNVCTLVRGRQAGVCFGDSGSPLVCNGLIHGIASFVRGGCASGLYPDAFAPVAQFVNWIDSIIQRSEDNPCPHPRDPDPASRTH

As a reminder, the pIC50 is −log10 of the IC50, conventionally taken in molar units. Read a low pIC50 as a high IC50.

The target of this test is Human neutrophil elastase (Homo sapiens (Human), UniProt P08246). Put plainly: Human Neutrophil Elastase Assay. The test is classed as biochemical. As to conditions: substrate MeOSuc-Ala-Ala-Pro-Val-AMC, pH 7.5.
In turn, `CS(=O)(=O)c1cc(C#N)ccc1[C@@H]1C2=C(CCCC2=O)N(c2cccc(C(F)(F)F)c2)C(=O)N1C(=O)N[C@H]1CCCC[C@@H]1O` showed a pIC50 above 9.00.
`CS(=O)(=O)c1cc(C#N)ccc1[C@@H]1C2=C(CCCC2=O)N(c2cccc(C(F)(F)F)c2)C(=O)N1C(=O)N[C@H]1CC[C@H](O)C1` gave a pIC50 above 9.00.
Consider `CS(=O)(=O)c1cc(C#N)ccc1[C@@H]1C2=C(CCCC2=O)N(c2cccc(C(F)(F)F)c2)C(=O)N1C(=O)N[C@H]1CCC[C@H]1O`, for which the pIC50 was above 9.00.
Compound `CS(=O)(=O)c1cc(C#N)ccc1[C@@H]1C2=C(CCCC2=O)N(c2cccc(C(F)(F)F)c2)C(=O)N1C(=O)N[C@H]1CCC[C@@H]1O` showed a pIC50 above 9.00.

Source of the values: patent USRE47493E1, “Substituted bicyclic dihydropyrimidinones and their use as inhibitors of neutrophil elastase activity” (Boehringer Ingelheim International GmbH, priority 2014, dated 2019).
